Here are results for 2 molecules from ChEMBL document CHEMBL1144389, “Optimization of purine based PDE1/PDE5 inhibitors to a potent and selective PDE5 inhibitor for the treatment of male ED” (Bioorg Med Chem Lett, 2005).

Chains of the proteins cited; added tags and fusions are not shown. Lines headed by an entry give the natural chain unless they say otherwise; changes in a name come on top.
UniProt O76083: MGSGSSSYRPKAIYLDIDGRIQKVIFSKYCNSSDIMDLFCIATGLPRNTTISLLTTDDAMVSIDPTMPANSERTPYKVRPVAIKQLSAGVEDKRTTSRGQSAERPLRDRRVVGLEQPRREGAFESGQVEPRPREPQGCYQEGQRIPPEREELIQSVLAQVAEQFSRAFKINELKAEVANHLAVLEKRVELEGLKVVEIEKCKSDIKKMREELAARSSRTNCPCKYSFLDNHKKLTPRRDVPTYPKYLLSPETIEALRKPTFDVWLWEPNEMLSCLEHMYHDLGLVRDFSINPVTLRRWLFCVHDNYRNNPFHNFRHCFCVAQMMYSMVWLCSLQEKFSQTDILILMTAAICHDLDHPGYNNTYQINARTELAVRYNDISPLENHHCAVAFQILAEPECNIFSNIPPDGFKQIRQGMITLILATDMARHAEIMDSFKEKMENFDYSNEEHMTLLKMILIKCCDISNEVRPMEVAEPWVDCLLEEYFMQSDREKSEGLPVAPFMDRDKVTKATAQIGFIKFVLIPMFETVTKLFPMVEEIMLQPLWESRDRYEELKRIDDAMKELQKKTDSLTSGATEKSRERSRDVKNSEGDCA
UniProt O00408, whole entry: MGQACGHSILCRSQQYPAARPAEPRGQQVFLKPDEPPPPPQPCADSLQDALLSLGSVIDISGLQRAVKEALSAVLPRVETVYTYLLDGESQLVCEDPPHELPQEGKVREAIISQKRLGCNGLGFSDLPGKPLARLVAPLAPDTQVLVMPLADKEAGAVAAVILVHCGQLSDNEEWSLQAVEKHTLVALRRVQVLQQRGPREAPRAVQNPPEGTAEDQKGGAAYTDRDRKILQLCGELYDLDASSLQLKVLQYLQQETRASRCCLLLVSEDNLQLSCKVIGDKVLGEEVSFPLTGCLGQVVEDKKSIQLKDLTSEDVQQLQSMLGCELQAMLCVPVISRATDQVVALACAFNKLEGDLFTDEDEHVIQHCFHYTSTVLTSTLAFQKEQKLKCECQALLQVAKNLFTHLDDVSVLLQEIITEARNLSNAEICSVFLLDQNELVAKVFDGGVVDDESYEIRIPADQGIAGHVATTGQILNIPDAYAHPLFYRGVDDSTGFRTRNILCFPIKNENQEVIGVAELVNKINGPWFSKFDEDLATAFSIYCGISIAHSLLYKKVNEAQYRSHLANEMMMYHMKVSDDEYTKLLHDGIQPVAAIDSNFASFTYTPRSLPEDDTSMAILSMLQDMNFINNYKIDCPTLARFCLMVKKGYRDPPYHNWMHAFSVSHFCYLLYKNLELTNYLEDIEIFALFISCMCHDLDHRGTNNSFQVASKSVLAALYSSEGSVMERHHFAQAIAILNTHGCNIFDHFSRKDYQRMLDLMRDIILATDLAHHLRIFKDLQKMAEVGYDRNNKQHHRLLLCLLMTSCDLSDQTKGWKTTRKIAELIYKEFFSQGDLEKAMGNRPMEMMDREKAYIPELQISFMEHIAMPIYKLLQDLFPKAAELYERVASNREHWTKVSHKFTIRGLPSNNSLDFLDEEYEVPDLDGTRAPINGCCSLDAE

The IC50 is the point on the concentration scale where inhibition reaches its midpoint.

Assay [1] concerns the target cGMP-specific 3',5'-cyclic phosphodiesterase (Homo sapiens, UniProt O76074). The experiment in a line: Inhibition of human phosphodiesterase 5.
Assay [2] deals with High affinity cGMP-specific 3',5'-cyclic phosphodiesterase 9A (Homo sapiens, UniProt O76083). The experiment in a line: Inhibition of Phosphodiesterase 9.
Assay [3] concerns the target cGMP-dependent 3',5'-cyclic phosphodiesterase (Homo sapiens, UniProt O00408). The experiment in a line: Inhibition of human phosphodiesterase 2.

`CCN1C(=O)c2c(nc(Br)n2Cc2ccc(OC)cc2)N2C[C@@H](Cc3ccccc3)N=C12`: half-maximal inhibition in assay [1] (IC50) was put at 0.023 µM.

Take `CCCc1nn(C)c2c(=O)[nH]c(-c3cc(S(=O)(=O)N4CCN(C)CC4)ccc3OCC)nc12`: the IC50 in assay [2] is 3.4 µM; in assay [3], over 10 µM.
